The source of these data is paper PMC9997068, “Impact of Gastric pH Variations on the Release of Amorphous Solid Dispersion Formulations Containing a Weakly Basic Drug and Enteric Polymers” (Molecular Pharmaceutics, 2023).

Read-outs that look alike come from different tables or passages of the source.

Regarding “hydroxypropyl methylcellulose acetate succinate [HPMCAS-LF]”, the polymer solubility (pH 5.5) worked out at 1687 ± 47 µg/mL and the polymer solubility (pH 6.5) was greater than 20000 µg/mL. Substance “hydroxypropyl methylcellulose acetate succinate [HPMCAS-MF]” had a polymer solubility (pH 5.5) of 1401 ± 69 µg/mL.
